Measured values as given in patent US20140100156A1 (SANOFI, priority 2012, published 2014).

By UniProt entry, the sequences of proteins in these tests, tags left out. Residues count along the entry.
UniProt P47871, 26-477: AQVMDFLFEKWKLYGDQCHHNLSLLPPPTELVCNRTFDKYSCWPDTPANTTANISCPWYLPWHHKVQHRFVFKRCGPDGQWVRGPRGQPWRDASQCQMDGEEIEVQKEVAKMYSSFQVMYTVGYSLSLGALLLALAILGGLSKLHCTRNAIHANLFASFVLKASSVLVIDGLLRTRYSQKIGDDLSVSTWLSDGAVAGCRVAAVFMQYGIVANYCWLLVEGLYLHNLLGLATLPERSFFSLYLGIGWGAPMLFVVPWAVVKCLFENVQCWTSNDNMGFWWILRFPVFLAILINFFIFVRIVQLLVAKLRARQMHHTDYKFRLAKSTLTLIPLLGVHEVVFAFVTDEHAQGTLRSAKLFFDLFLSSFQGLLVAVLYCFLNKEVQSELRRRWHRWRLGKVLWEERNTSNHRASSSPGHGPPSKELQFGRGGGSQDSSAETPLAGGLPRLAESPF
UniProt P43220, 24-463: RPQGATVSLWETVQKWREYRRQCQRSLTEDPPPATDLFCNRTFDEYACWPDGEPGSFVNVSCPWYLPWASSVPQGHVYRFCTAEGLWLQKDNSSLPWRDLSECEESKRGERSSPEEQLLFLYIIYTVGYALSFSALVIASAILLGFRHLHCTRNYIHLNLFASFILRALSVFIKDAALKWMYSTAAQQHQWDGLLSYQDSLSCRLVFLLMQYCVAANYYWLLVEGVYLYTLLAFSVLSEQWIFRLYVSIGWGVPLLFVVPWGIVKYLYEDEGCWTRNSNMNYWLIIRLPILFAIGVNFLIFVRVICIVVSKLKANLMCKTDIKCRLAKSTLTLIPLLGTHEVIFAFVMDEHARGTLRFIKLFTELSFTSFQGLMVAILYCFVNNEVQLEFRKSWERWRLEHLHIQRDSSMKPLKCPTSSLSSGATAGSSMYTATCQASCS

Legend:
human glucagon receptor = molecular target: T1, human glucagon receptor (Homo sapiens, UniProt P47871); assay: cAMP response (HTRF) of HEK-293 cells stably expressing human glucagon receptor; assay type: cell-based; settings: Table 5; cAMP, HEK-293; read-out: EC50 hGlucagon-R
T1 construct: expressed in transfected cells; host or cells: HEK-293

human GLP-1 receptor = molecular target: T2, human GLP-1 receptor (Homo sapiens, UniProt P43220); assay: cAMP response (HTRF) of HEK-293 cells stably expressing human GLP-1 receptor; assay type: cell-based; settings: Table 5; cAMP, HEK-293; read-out: EC50 hGLP-1R
T2 construct: expressed in transfected cells; host or cells: HEK-293

SMILES | EC50 (human glucagon receptor) | EC50 (human GLP-1 receptor)
CCCCCCCCCCCCCCCC(=O)N[C@@H](CCC(=O)NCCCC[C@H](NC(=O)[C@H](CCC(N)=O)NC(=O)[C@H](CCCCN)NC(=O)[C@H](CO)NC(=O)[C@H](CC(C)C)NC(=O)[C@H](CC(=O)O)NC(=O)[C@H](CO)NC(=O)[C@@H](NC(=O)[C@H](Cc1ccccc1)NC(=O)[C@@H](NC(=O)CNC(=O)[C@H](CCC(N)=O)NC(=O)[C@@H](CO)NC(=O)[C@@H](N)Cc1c[nH]cn1)[C@@H](C)O)[C@@H](C)O)C(=O)N[C@@H](CCC(=O)O)C(=O)N[C@@H](CO)C(=O)N[C@@H](CCCNC(=N)N)C(=O)N[C@@H](CCCNC(=N)N)C(=O)N[C@@H](C)C(=O)N[C@@H](CCC(N)=O)C(=O)N[C@@H](CC(C)C)C(=O)N[C@@H](Cc1ccccc1)C(=O)N[C@H](C(=O)N[C@@H](CCC(=O)O)C(=O)N[C@@H](Cc1c[nH]c2ccccc12)C(=O)N[C@@H](CC(C)C)C(=O)N[C@@H](CCCCN)C(=O)N[C@@H](C)C(=O)NCC(=O)NCC(=O)N1CCC[C@H]1C(=O)N[C@@H](CO)C(=O)N[C@@H](CO)C(=O)NCC(=O)N[C@@H](C)C(=O)N1CCC[C@H]1C(=O)N1CCC[C@H]1C(=O)N1CCC[C@H]1C(=O)N[C@@H](CO)C(N)=O)[C@@H](C)CC)C(=O)O [compound 68] | 0.0057 nM | 0.0079 nM
CCCCCCCCCCCCCCCC(=O)NCCCC[C@H](NC(=O)[C@H](CCC(N)=O)NC(=O)[C@H](CCCCN)NC(=O)[C@H](CO)NC(=O)[C@H](CC(C)C)NC(=O)[C@H](CC(=O)O)NC(=O)[C@H](CO)NC(=O)[C@@H](NC(=O)[C@H](Cc1ccccc1)NC(=O)[C@@H](NC(=O)CNC(=O)[C@H](CCC(N)=O)NC(=O)[C@@H](CO)NC(=O)[C@@H](N)Cc1c[nH]cn1)[C@@H](C)O)[C@@H](C)O)C(=O)N[C@@H](CCC(=O)O)C(=O)N[C@@H](CO)C(=O)N[C@@H](CCCNC(=N)N)C(=O)N[C@@H](CCCNC(=N)N)C(=O)N[C@@H](C)C(=O)N[C@@H](CCC(N)=O)C(=O)N[C@@H](CC(C)C)C(=O)N[C@@H](Cc1ccccc1)C(=O)N[C@H](C(=O)N[C@@H](CCC(=O)O)C(=O)N[C@@H](Cc1c[nH]c2ccccc12)C(=O)N[C@@H](CC(C)C)C(=O)N[C@@H](CCCCN)C(=O)N[C@@H](C)C(=O)NCC(=O)NCC(=O)N1CCC[C@H]1C(=O)N[C@@H](CO)C(=O)N[C@@H](CO)C(=O)NCC(=O)N[C@@H](C)C(=O)N1CCC[C@H]1C(=O)N1CCC[C@H]1C(=O)N1CCC[C@H]1C(=O)N[C@@H](CO)C(N)=O)[C@@H](C)CC [compound 69] | 0.0524 nM | 0.0448 nM
CCCCCCCCCCCCCCCC(=O)N[C@@H](CCC(=O)NCCC[C@H](NC(=O)[C@H](CCC(N)=O)NC(=O)[C@H](CCCCN)NC(=O)[C@H](CO)NC(=O)[C@H](CC(C)C)NC(=O)[C@H](CC(=O)O)NC(=O)[C@H](CO)NC(=O)[C@@H](NC(=O)[C@H](Cc1ccccc1)NC(=O)[C@@H](NC(=O)CNC(=O)[C@H](CCC(N)=O)NC(=O)[C@@H](CO)NC(=O)[C@@H](N)Cc1c[nH]cn1)[C@@H](C)O)[C@@H](C)O)C(=O)N[C@@H](CCC(=O)O)C(=O)N[C@@H](CO)C(=O)N[C@@H](CCCNC(=N)N)C(=O)N[C@@H](CCCNC(=N)N)C(=O)N[C@@H](C)C(=O)N[C@@H](CCC(N)=O)C(=O)N[C@@H](CC(=O)O)C(=O)N[C@@H](Cc1ccccc1)C(=O)N[C@H](C(=O)N[C@@H](CCC(=O)O)C(=O)N[C@@H](Cc1c[nH]c2ccccc12)C(=O)N[C@@H](CC(C)C)C(=O)N[C@@H](CCCCN)C(=O)N[C@@H](C)C(=O)NCC(=O)NCC(=O)N1CCC[C@H]1C(=O)N[C@@H](CO)C(=O)N[C@@H](CO)C(=O)NCC(=O)N[C@@H](C)C(=O)N1CCC[C@H]1C(=O)N1CCC[C@H]1C(=O)N1CCC[C@H]1C(=O)N[C@@H](CO)C(N)=O)[C@@H](C)CC)C(=O)O [compound 71] | 0.0056 nM | 0.0205 nM
CCCCCCCCCCCCCCCC(=O)N[C@@H](CCC(=O)NCC[C@H](NC(=O)[C@H](CCC(N)=O)NC(=O)[C@H](CCCCN)NC(=O)[C@H](CO)NC(=O)[C@H](CC(C)C)NC(=O)[C@H](CC(=O)O)NC(=O)[C@H](CO)NC(=O)[C@@H](NC(=O)[C@H](Cc1ccccc1)NC(=O)[C@@H](NC(=O)CNC(=O)[C@H](CCC(N)=O)NC(=O)[C@@H](CO)NC(=O)[C@@H](N)Cc1c[nH]cn1)[C@@H](C)O)[C@@H](C)O)C(=O)N[C@@H](CCC(=O)O)C(=O)N[C@@H](CO)C(=O)N[C@@H](CCCNC(=N)N)C(=O)N[C@@H](CCCNC(=N)N)C(=O)N[C@@H](C)C(=O)N[C@@H](CCC(N)=O)C(=O)N[C@@H](CC(=O)O)C(=O)N[C@@H](Cc1ccccc1)C(=O)N[C@H](C(=O)N[C@@H](CCC(=O)O)C(=O)N[C@@H](Cc1c[nH]c2ccccc12)C(=O)N[C@@H](CC(C)C)C(=O)N[C@@H](CCCCN)C(=O)N[C@@H](C)C(=O)NCC(=O)NCC(=O)N1CCC[C@H]1C(=O)N[C@@H](CO)C(=O)N[C@@H](CO)C(=O)NCC(=O)N[C@@H](C)C(=O)N1CCC[C@H]1C(=O)N1CCC[C@H]1C(=O)N1CCC[C@H]1C(=O)N[C@@H](CO)C(N)=O)[C@@H](C)CC)C(=O)O [compound 72] | 0.386 nM | 0.0259 nM
CCCCCCCCCCCCCCCC(=O)N[C@@H](CCC(=O)NCCCC[C@H](NC(=O)[C@H](CCC(N)=O)NC(=O)[C@H](CCCCN)NC(=O)[C@H](CO)NC(=O)[C@H](CC(C)C)NC(=O)[C@H](CC(=O)O)NC(=O)[C@H](CO)NC(=O)[C@@H](NC(=O)[C@H](Cc1ccccc1)NC(=O)[C@@H](NC(=O)CNC(=O)[C@H](Cc1c[nH]cn1)NC(=O)[C@@H](CO)NC(=O)[C@@H](N)Cc1c[nH]cn1)[C@@H](C)O)[C@@H](C)O)C(=O)N[C@@H](CCC(=O)O)C(=O)N[C@@H](CO)C(=O)N[C@@H](CCCNC(=N)N)C(=O)N[C@@H](CCCNC(=N)N)C(=O)N[C@@H](C)C(=O)N[C@@H](CCC(N)=O)C(=O)N[C@@H](CC(=O)O)C(=O)N[C@@H](Cc1ccccc1)C(=O)N[C@H](C(=O)N[C@@H](CCC(=O)O)C(=O)N[C@@H](Cc1c[nH]c2ccccc12)C(=O)N[C@@H](CC(C)C)C(=O)N[C@@H](CCCCN)C(=O)N[C@@H](C)C(=O)NCC(=O)NCC(=O)N1CCC[C@H]1C(=O)N[C@@H](CO)C(=O)N[C@@H](CO)C(=O)NCC(=O)N[C@@H](C)C(=O)N1CCC[C@H]1C(=O)N1CCC[C@H]1C(=O)N1CCC[C@H]1C(=O)N[C@@H](CO)C(N)=O)[C@@H](C)CC)C(=O)O [compound 73] | 0.0017 nM | 0.0041 nM
CCCCCCCCCCCCCCCC(=O)N[C@@H](CCC(=O)NCCCC[C@H](NC(=O)[C@H](CCC(N)=O)NC(=O)[C@H](CCCCN)NC(=O)[C@H](CO)NC(=O)[C@H](CC(C)C)NC(=O)[C@H](CC(=O)O)NC(=O)[C@H](CO)NC(=O)[C@@H](NC(=O)[C@H](Cc1ccccc1)NC(=O)[C@@H](NC(=O)CNC(=O)[C@H](CCC(N)=O)NC(=O)[C@@H](CO)NC(=O)[C@@H](N)Cc1c[nH]cn1)[C@@H](C)O)[C@@H](C)O)C(=O)N[C@@H](CC(=O)O)C(=O)N[C@@H](CO)C(=O)N[C@@H](CCCNC(=N)N)C(=O)N[C@@H](CCCNC(=N)N)C(=O)N[C@@H](C)C(=O)N[C@@H](CCC(N)=O)C(=O)N[C@@H](CC(=O)O)C(=O)N[C@@H](Cc1ccccc1)C(=O)N[C@H](C(=O)N[C@@H](CCC(=O)O)C(=O)N[C@@H](Cc1c[nH]c2ccccc12)C(=O)N[C@@H](CC(C)C)C(=O)N[C@@H](CCCCN)C(=O)N[C@@H](C)C(=O)NCC(=O)NCC(=O)N1CCC[C@H]1C(=O)N[C@@H](CO)C(=O)N[C@@H](CO)C(=O)NCC(=O)N[C@@H](C)C(=O)N1CCC[C@H]1C(=O)N1CCC[C@H]1C(=O)N1CCC[C@H]1C(=O)N[C@@H](CO)C(N)=O)[C@@H](C)CC)C(=O)O [compound 74] | 0.0013 nM | 0.0042 nM
CCCCCCCCCCCCCCCC(=O)N[C@@H](CCC(=O)NCCCC[C@H](NC(=O)[C@H](CCC(N)=O)NC(=O)[C@H](CCCCN)NC(=O)[C@H](CO)NC(=O)[C@H](CC(C)C)NC(=O)[C@H](CC(=O)O)NC(=O)[C@H](CO)NC(=O)[C@@H](NC(=O)[C@H](Cc1ccccc1)NC(=O)[C@@H](NC(=O)CNC(=O)[C@H](CCC(N)=O)NC(=O)[C@@H](CO)NC(=O)[C@@H](N)Cc1c[nH]cn1)[C@@H](C)O)[C@@H](C)O)C(=O)N[C@@H](CCC(=O)O)C(=O)N[C@@H](CO)C(=O)N[C@@H](CCCNC(=N)N)C(=O)N[C@@H](CCCNC(=N)N)C(=O)N[C@@H](C)C(=O)NC(C)(C)C(=O)N[C@@H](CC(=O)O)C(=O)N[C@@H](Cc1ccccc1)C(=O)N[C@H](C(=O)N[C@@H](CCC(=O)O)C(=O)N[C@@H](Cc1c[nH]c2ccccc12)C(=O)N[C@@H](CC(C)C)C(=O)N[C@@H](CCCCN)C(=O)N[C@@H](C)C(=O)NCC(=O)NCC(=O)N1CCC[C@H]1C(=O)N[C@@H](CO)C(=O)N[C@@H](CO)C(=O)NCC(=O)N[C@@H](C)C(=O)N1CCC[C@H]1C(=O)N1CCC[C@H]1C(=O)N1CCC[C@H]1C(=O)N[C@@H](CO)C(N)=O)[C@@H](C)CC)C(=O)O [compound 75] | 0.0125 nM | 0.0111 nM
CCCCCCCCCCCCCCCC(=O)NCCCC[C@H](NC(=O)[C@H](CCC(N)=O)NC(=O)[C@H](CCCCN)NC(=O)[C@H](CO)NC(=O)[C@H](CC(C)C)NC(=O)[C@H](CC(=O)O)NC(=O)[C@H](CO)NC(=O)[C@@H](NC(=O)[C@H](Cc1ccccc1)NC(=O)[C@@H](NC(=O)CNC(=O)[C@H](CCC(N)=O)NC(=O)[C@@H](CO)NC(=O)[C@@H](N)Cc1c[nH]cn1)[C@@H](C)O)[C@@H](C)O)C(=O)N[C@@H](CCC(=O)O)C(=O)N[C@@H](CO)C(=O)N[C@@H](CCCNC(=N)N)C(=O)N[C@@H](CCCNC(=N)N)C(=O)N[C@@H](C)C(=O)NC(C)(C)C(=O)N[C@@H](CC(=O)O)C(=O)N[C@@H](Cc1ccccc1)C(=O)N[C@H](C(=O)N[C@@H](CCC(=O)O)C(=O)N[C@@H](Cc1c[nH]c2ccccc12)C(=O)N[C@@H](CC(C)C)C(=O)N[C@@H](CCCCN)C(=O)N[C@@H](C)C(=O)NCC(=O)NCC(=O)N1CCC[C@H]1C(=O)N[C@@H](CO)C(=O)N[C@@H](CO)C(=O)NCC(=O)N[C@@H](C)C(=O)N1CCC[C@H]1C(=O)N1CCC[C@H]1C(=O)N1CCC[C@H]1C(=O)N[C@@H](CO)C(N)=O)[C@@H](C)CC [compound 76] | 0.162 nM | 0.0449 nM
